## Measured affinities in a library of Ab-91 heavy chain variants

Target: peptide PDVDLGDISGINAS, taken from heptad repeat 2 (HR2) of SARS-CoV-2 spike.

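The parent was found by panning a naive human phage display library on the peptide. Variants in AAYL51 differ from the parent at up to three CDR positions; double and triple changes were sampled at random. In AlphaSeq, yeast of one mating type display the scFv and yeast of the other type display the target. The frequency of each diploid, read from paired DNA barcodes, reflects how well the two displayed proteins bind. Read counts were normalised to the haploid input and turned into Kd by a linear fit to BCL2-family pairs of known affinity, for each replicate. Each pool was mated in three replicate cultures.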

Parent scFv Ab-91: VL joined to VH by the linker GGGGSGGGGSGGGGS. Changes lie in the heavy chain CDRs alone.
VL: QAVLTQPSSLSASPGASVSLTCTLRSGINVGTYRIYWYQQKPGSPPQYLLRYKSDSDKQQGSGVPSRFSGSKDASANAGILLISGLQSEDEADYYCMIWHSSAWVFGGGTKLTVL
VH: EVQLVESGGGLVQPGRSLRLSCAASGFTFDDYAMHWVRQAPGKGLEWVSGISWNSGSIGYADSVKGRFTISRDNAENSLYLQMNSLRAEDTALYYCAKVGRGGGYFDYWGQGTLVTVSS

Positions count from residue 1 of the parent VH; G56C puts C in place of G. Numbers give log10(Kd / nM), so 0 is 1 nM and 3 is 1 µM. Smaller is tighter. Replicates are averaged; those with no signal do not enter the mean. "nd" means that the variant was in the library but no mating with the target was seen in that replicate; the authors take this as a sign of poor binding, and no number exists. Nonspecific signal, from three strains lacking the peptide, appeared in 21% of pairings of library AAYL51, centred on 4.54 (5% of these signals below 3.26); values are not corrected for it. Also given: how often the same scFv was detected with the empty control strains, with their mean in brackets. Parent in this assay: reference entry 1.86, copy in this library 0.88.

changes	log10 Kd, replicates	mean log10 Kd (nM)	control signals
G56C/A61T	3.42 3.02 3.17	3.21	5/9 (4.91)
G26Q/N54P/I58M	nd nd nd	nd	0/9
W53D/S57I/I58L	4.45 4.72 nd	4.59	5/9 (4.34)
I58P/V99I/Y108W	nd nd nd	nd	5/9 (4.80)
D30Y/K65N	nd nd nd	nd	1/9 (4.10)
S55T/G56V/F106M	2.59 2.30 1.97	2.29	1/9 (2.86)
G50R/S52T/A61L	4.55 nd nd	4.55	5/9 (3.58)
F27Y/G103W/Y108P	1.14 1.23 0.55	0.97	1/9 (4.40)
H35W/S52H/G56M	nd nd nd	nd	0/9
Y32R/W53N/Y108H	nd nd nd	nd	0/9
Y60C/D62C/D107L	nd nd nd	nd	0/9
F29K/S55V/S63T	4.53 nd 5.25	4.89	5/9 (4.55)
G50W/S52Y/I58R	nd nd nd	nd	0/9
D30G/S63C/V99A	nd nd 4.19	4.19	5/9 (4.31)
G100I/G104R	5.86 5.13 nd	5.49	8/9 (4.80)
Y60S/S63P/D107C	nd nd nd	nd	1/9 (3.18)
T28N/D31M/A61N	nd 6.36 nd	6.36	8/9 (4.50)
S57G/Y105I/D107V	5.71 nd nd	5.71	0/9
F27N/S55L/Y60R	nd nd 3.55	3.55	1/9 (3.84)
T28Y/F29K	6.14 3.80 nd	4.97	3/9 (4.91)
F29M/S52K/S63V	nd nd nd	nd	1/9 (2.81)
G56N/K65E/V99R	1.08 1.12 0.50	0.90	7/9 (5.44)
F27E/F29E/S57C	nd 4.01 4.44	4.23	0/9
S52V/V99Q/G104V	nd nd nd	nd	0/9
H35I/S63W	nd nd nd	nd	1/9 (3.19)
F27M/V99Y	5.80 5.33 nd	5.56	5/9 (5.00)
G59M/G100K	nd 4.36 nd	4.36	2/9 (4.29)
T28Y	1.81 1.75 1.32	1.63	1/9 (4.24)
D31N/S57L/G59W	4.09 nd nd	4.09	4/9 (4.25)
D30E/V64A/G102D	nd nd 4.03	4.03	2/9 (3.94)
F29D/R101G	4.21 nd 4.27	4.24	3/9 (5.80)

The measurements come from Engelhart et al. 2022 (doi:10.1038/s41597-022-01779-4) through the FLAb antibody collection.